# Antibody variant affinities, Ab-14 heavy chain, assay 1

Antigen: PDVDLGDISGINAS, a 14-residue peptide of the SARS-CoV-2 spike HR2 region.

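The starting antibody came from a phage panning campaign against this peptide. AAYL49 was designed without a model: most single CDR substitutions and a random sample of double and triple ones. AlphaSeq pools MATa yeast showing the antibodies with MATalpha yeast showing the peptide. The frequency of each diploid, read from paired DNA barcodes, reflects how well the two displayed proteins bind. Each replicate has its own calibration line, from reference interactions of the BCL2 family. The assay was run in three technical replicates.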

Ab-14 is the parent antibody, in scFv form: VH, then the linker GGGGSGGGGSGGGGS, then VL. The light chain is unchanged in all variants.
VH: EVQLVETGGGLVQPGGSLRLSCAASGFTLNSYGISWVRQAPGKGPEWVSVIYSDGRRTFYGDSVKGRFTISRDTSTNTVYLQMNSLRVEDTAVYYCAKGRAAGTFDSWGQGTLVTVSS
VL: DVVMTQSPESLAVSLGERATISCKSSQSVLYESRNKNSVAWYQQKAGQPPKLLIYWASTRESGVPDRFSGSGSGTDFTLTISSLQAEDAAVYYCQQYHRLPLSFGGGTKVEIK

Substitutions are numbered in sequence along the VH above, starting at 1 (not Kabat).
Values are apparent Kd, the geometric mean of the replicates that gave a signal; lower means stronger binding.
"nd" means that the variant was in the library but no mating with the target was seen in any replicate; the authors take this as a sign of poor binding, and no number exists.
Three control strains display no target. For library AAYL49, 15% of the pairings with them gave a signal, with a median of 11 µM and one signal in twenty below 680 nM, so weak values seen in few replicates may be background. The control count says in how many pairings with the empty strains this scFv gave a signal.
In this assay the parent's reference entry averaged 4.4 nM; its copy inside this library read 13 µM (one replicate of three).

changes | apparent Kd | detected | control signals
F59T/K65N/F105H | 210 µM | 1/3 | 2/9
D54R/R57M/S107R | 6.0 µM | 1/3 | 1/9
N30Q/S53F/G61D | 2.1 µM | 2/3 | 0/9
L29T/R100N/A101H | 23 nM | 3/3 | 0/9
Y60W/G61K/F105V | 1.9 µM | 1/3 | 2/9
Y52R/Y60K/A101M | 140 µM | 2/3 | 3/9
S53M/T58R | 2.0 µM | 1/3 | 0/9
L29S/S35R/V64H | 33 µM | 2/3 | 5/9
T28M/R100I/F105H | 65 µM | 1/3 | 4/9
Y32P/R56E/Y60Q | 210 µM | 1/3 | 0/9
A102F/G103A | 4.5 µM | 2/3 | 3/9
S35K/G103Y/T104Y | nd | 0/3 | 0/9
G33F/R57K/A101T | 8.4 µM | 1/3 | 3/9
Y52I/G99V/R100I | nd | 0/3 | 0/9
R57Y/K65N/D106Y | nd | 0/3 | 1/9
N30G/Y32D/A102F | 25 µM | 1/3 | 0/9
F27C/T28D/G61L | 75 nM | 3/3 | 1/9
G55T/R57P | nd | 0/3 | 0/9
T28R/N30D/F105I | 9.8 nM | 3/3 | 1/9
T28W/I34V/D62P | nd | 0/3 | 2/9
V50T/Y60R | nd | 0/3 | 2/9
V64G/A101V/S107I | nd | 0/3 | 1/9
L29D/Y60L/G61F | nd | 0/3 | 1/9
A102Q/T104L/S107P | nd | 0/3 | 1/9
Y60Q/V64D/T104Y | 33 µM | 2/3 | 2/9
S53A/G61F/F105L | 35 nM | 3/3 | 0/9

The remaining entries, values ahead:

apparent Kd | detected | control signals | changes
42 nM | 3/3 | 2/9 | T28N/D62Y/K65V
4.9 µM | 1/3 | 1/9 | S35Y/D54T/S107D
140 µM | 1/3 | 4/9 | N30E/D54Q/G99P
1.4 µM | 1/3 | 0/9 | Y32M/G103S
nd | 0/3 | 1/9 | L29A/S35C/S53V
nd | 0/3 | 1/9 | S31C/R56V/K65P
nd | 0/3 | 0/9 | I34R/G55Q/R56T
nd | 0/3 | 0/9 | F59K/R100K/A102Y
5.0 µM | 1/3 | 2/9 | S35T/V50C
nd | 0/3 | 1/9 | I34E/G99M/A101Q
76 µM | 1/3 | 4/9 | R100N/T104F/F105W
nd | 0/3 | 3/9 | D54E/T58N/G61A
1.4 µM | 1/3 | 0/9 | L29W/D54C/T58I
nd | 0/3 | 0/9 | S31P/F59A/F105E
18 nM | 3/3 | 0/9 | N30A/D106S
nd | 0/3 | 1/9 | G33F/G55H/R56D
11 µM | 2/3 | 6/9 | G26Y/I34E
nd | 0/3 | 5/9 | S31P/G33E/T104R
nd | 0/3 | 0/9 | S31R/Y32F/S53C
81 µM | 2/3 | 3/9 | S35T/D54N/A101R
nd | 0/3 | 2/9 | G26L/N30Q/G33V
35 µM | 1/3 | 3/9 | T28C/G61N/V64I
nd | 0/3 | 0/9 | L29I/S35P/S107G
43 nM | 3/3 | 1/9 | F27D/F59E/T104K
nd | 0/3 | 0/9 | I51F/V64F
3.0 µM | 1/3 | 5/9 | F59M/V64H/A102V
2.1 µM | 1/3 | 1/9 | S35A/A101I/D106K

Source: Engelhart et al. 2022 (doi:10.1038/s41597-022-01779-4), MIT Lincoln Laboratory and A-Alpha Bio; data file from the FLAb repository.